Data published in patent US12116358B2, “Substituted indoles and methods of use thereof” (EPIZYME, INC., priority 2018, dated 2024).

Protein sequences, listed by entry. Tags and fused reporters are not part of them. Residues count along the entry.
UniProt Q9BYW2, 1434-1711 limits assumed: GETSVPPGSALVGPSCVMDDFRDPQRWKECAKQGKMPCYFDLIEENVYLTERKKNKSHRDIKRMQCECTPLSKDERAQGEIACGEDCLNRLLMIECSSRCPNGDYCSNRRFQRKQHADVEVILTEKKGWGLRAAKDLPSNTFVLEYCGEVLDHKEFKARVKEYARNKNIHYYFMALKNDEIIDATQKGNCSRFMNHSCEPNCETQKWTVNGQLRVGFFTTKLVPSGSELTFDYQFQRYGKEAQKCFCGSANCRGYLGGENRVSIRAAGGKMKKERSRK

Each molecule was assayed against SETD2(1434-1711) (Homo sapiens, UniProt Q9BYW2) (assay: SETD2 (1434-1711) assay). Conditions: read-out: SETD2 (1434-1711).
Assay type: biochemical

Point of comparison: Cc1ccc(F)c2cc(C(=O)N[C@@H]3CCC[C@@H](N4CCNCC4)C3)[nH]c12, IC50 1500 nM. Against it:
- Cc1ccc(F)c2cc(C(=O)N[C@@H]3CCC[C@@H](N4CCCC5(CCNC5=O)C4)C3)[nH]c12 (some centres unmarked) — 3.3-fold higher, 4900 nM
- Cc1ccc(F)c2cc(C(=O)NC3CCCC(N4CCN(C(=O)C(F)F)CC4)C3)[nH]c12 (single isomer, unassigned) [878] — 75-fold lower, 20 nM
- Cc1ccc(F)c2cc(C(=O)NC3CCCC(N4CCN(C(=O)C(F)F)CC4)C3)[nH]c12 (single isomer, unassigned) [879] — 2.5-fold lower, 600 nM
- Cc1cccc2cc(C(=O)N[C@@H]3CCN(C(=O)CCCN)C[C@H]3C)[nH]c12 — 33-fold higher, 50000 nM
- Cc1ccc(F)c2cc(C(=O)N[C@@H]3CCC[C@H](N4CC[C@@H](N(CCO)S(C)(=O)=O)C4)C3)[nH]c12 — 75-fold lower, 20 nM
- Cc1cccc2cc(C(=O)N[C@H]3C[C@H]4CC[C@@H](C3)N4C(=O)CCCN)[nH]c12 (relative stereo) — 17-fold higher, 25200 nM
- Cc1ccc(F)c2cc(C(=O)NC3CCCC(N4CCN(C(=O)CO)CC4)C3)[nH]c12 (centres unmarked) — 2.1-fold lower, 700 nM
